According to patent publication US11925662B2, “Compositions and methods of enhancing anti-tumor response using hybrid neutrophils” (THE TRUSTEES OF THE UNIVERSITY OF PENNSYLVANIA, priority 2015, dated 2024):

Assays:
A549 flank tumors = experiment: Planned study of ADCC in vivo (Table 1 groups); parameters: species or system NSG mice; conditions: IV cetuximab, IT saline (Group 2) vs control group
Method: NSG mice with established A549 flank tumors (100-200 mm^3) can be studied. The ability of BM-derived hybrid neutrophils to mediate ADCC in vivo using the cetuximab can be characterized. Briefly, cetuximab is injected IV into tumor-bearing mice. Next, 10^7 BM-derived hybrid or canonical neutrophils are injected intratumroally (IT). All IV injections are performed 2 hours before the IT injections to allow antibody binding to tumors. Tumor size over 5 days is measured. […] Ten (10) mice per group (enough to enable detection of 25% differences in tumor size-based on years of previous similar studies and consultation with a biostatistician) are studied. Compared to a control group (Group 1), little effect of antibody alone is expected (Group 2). No effect from canonical BMN (groups 3 and 4) or the hybrid BMN without cetuximab is expected (Group 5).

A549 lung cancer cells = conditions: literature (Kurai et al., 2007); cited from earlier work

cetuximab: anti-EGFR monoclonal antibody
expected effect on tumor size (A549 flank tumors): little effect
ADCC activity (A549 lung cancer cells): capable of activating ADCC activity
